Earlier results as cited in US5521180A, “Morpholine derivative” (Yamanouchi Pharmaceutical Co., Ltd., priority 1993, dated 1996).

Test system: 5-HT reuptake
Details: background; cited from earlier work

## O=c1n(CCCN2CCN(c3cccc(Cl)c3)CC2)nc2ccccn12 [Trazodone]
  5-HT reuptake inhibitory activity (in words): very weak
